Type in all cases: cell-based
For data set [1], the system named is human red blood cells (hRBCs). Briefly: Hemolysis assay. Particulars: 2% (v/v) hRBCs in PBS, peptide 0.98–250 µg/ml, 1 h, 37 °C, OD 405 nm. The method, then: The toxicity of all peptide derivatives toward human red blood cells (hRBCs) was investigated by evaluating the amount of hemoglobin released after exposure to peptide. Briefly, hRBCs (blood group O) were collected from a healthy adult volunteer into a heparin-coated polycarbonate tube. The sample was centrifuged for 5 min at 1000g to separate erythrocytes from buffy coat and plasma. The erythrocytes were washed at least three times with 1 × PBS and centrifuged for 5 min at 1000g or until supernatant was clear. The sample was resuspended in PBS to obtain 2% (v/v) hRBCs. To determine hRBC lysis, hRBC suspensions were incubated with equal volumes of various concentrations of peptide (0.98–250 µg/ml) for 1 h at 37 °C. Intact hRBCs were centrifuged for 5 min at 1000g, supernatants were transferred into new 96-well plates, and absorbance was measured at OD 405 nm. Untreated hRBCs (in PBS only) served as negative control (ODNegative) and hRBCs treated with 0.1% Triton X-100 as positive control (ODTritonX-100). Absorbance of samples was converted to percentage hemolysis according to the equation: Hemolysis%=ODSample-ODNegative/ODTriton X-100-ODNegative×100

Data set [2] relates to Staphylococcus aureus ATCC 25923. Particulars: triplicate. An excerpt:
(§1) All tests were done in triplicate.

Data set [3] deals with Staphylococcus epidermidis ATCC 12228. Particulars: colony count on TSA from non-turbid MIC wells, triplicate.
Description: as §1

Consider `CC[C@H](C)[C@H](NC(=O)CN)C(=O)NCC(=O)N[C@@H](C)C(=O)N[C@H](C(=O)N[C@@H](CC(C)C)C(=O)N[C@@H](CCCCN)C(=O)N[C@H](C(=O)N[C@@H](CC(C)C)C(=O)N[C@H](C(=O)N[C@H](C(=O)NCC(=O)N[C@@H](CC(C)C)C(=O)N1CCC[C@H]1C(=O)N[C@@H](C)C(=O)N[C@@H](CC(C)C)C(=O)N[C@H](C(=O)N[C@@H](CO)C(=O)N[C@@H](Cc1c[nH]c2ccccc12)C(=O)N[C@H](C(=O)N[C@@H](CCCCN)C(=O)N[C@@H](CCCNC(=N)N)C(=O)N[C@@H](CCCCN)C(=O)N[C@@H](CCCNC(=N)N)C(=O)N[C@@H](CCC(N)=O)C(=O)N[C@@H](CCC(N)=O)C(N)=O)[C@@H](C)CC)[C@@H](C)CC)[C@@H](C)O)[C@@H](C)O)C(C)C)C(C)C` [Melittin, reference compound], for which the “MHC, minimum concentration that caused 10% hemolysis of human red blood cells” value in data set [1] is on record as “˂ 0.98 µg/ml”. Moreover, the MIC in data set [2] (broth microdilution in MHB, 37 °C, 24 h) is 3.91 (3.91) µg/ml. Besides, the MBC in data set [2] (colony count on TSA from non-turbid MIC wells) and in data set [3] was 3.91 (3.91) µg/ml throughout.

The values above are taken from paper PMC9981719, “A novel designed membrane-active peptide for the control of foodborne Salmonella enterica serovar Typhimurium” (Scientific Reports, 2023).
